Binding of CDR-mutated scFvs to a peptide of the spike HR2 region

Binding partner: SARS-CoV-2 spike HR2 peptide, sequence PDVDLGDISGINAS.

Ab-14 is the parent antibody, in scFv form: VH, then the linker GGGGSGGGGSGGGGS, then VL. The light chain is unchanged in all variants.
VH: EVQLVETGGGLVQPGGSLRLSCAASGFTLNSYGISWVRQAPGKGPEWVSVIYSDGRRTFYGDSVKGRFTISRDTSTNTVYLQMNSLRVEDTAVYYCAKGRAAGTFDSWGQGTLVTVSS
VL: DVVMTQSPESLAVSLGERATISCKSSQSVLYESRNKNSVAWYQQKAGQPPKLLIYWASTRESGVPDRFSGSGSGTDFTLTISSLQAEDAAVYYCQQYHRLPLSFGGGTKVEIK

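Phage display of a naive human antibody library on the peptide gave the parent. The variants were designed computationally from a first round of random CDR variants and then made and measured. Their group label is 14H_En_HC (En: ensemble of fine-tuned language models; HC: hill climbing; a sequence that several methods proposed may carry one label only). Affinity was read by AlphaSeq, a pooled yeast mating assay with surface-displayed partners. Pairs that bind mate more often; barcode pairs of the diploids are counted by sequencing. Each replicate has its own calibration line, from reference interactions of the BCL2 family. Mating was done six times.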

The parent's heavy chain CDRs are GFTLNSYGIS, VIYSDGRRTFYGDSVK, GRAAGTFDS; each variant's own CDRs replace them letter for letter. Affinities are written as log10 Kd with Kd in nM; a lower number is a better binder. Averages over replicates are reported, and they cover detected replicates only. Where no diploid with the target was found in that replicate, the entry reads "ND": below detection, most likely a poor binder, though not proof of it. The authors' rule: three or more of the six replicates give a measured affinity, fewer mean a poor binder.

The variant GFDLNEYGIS, VIYADGRRTAYADSVK, GNLAGTFDQ gave -0.63, -0.71, -0.80, -0.70, -1.06, -0.30 (mean -0.70; controls 0 of 18).
The variant GFDLNEYGIS, VIYADGSRTFYSDSVK, GQTAGTFDQ gave -0.36, -0.35, -0.78, -0.80, -0.35, -0.47 (mean -0.52; controls 0 of 18).
The variant GFNLNEYGIS, VIYADGRRTFYADSVK, GQVAGTFIV gave 0.36, 0.34, 0.17, 0.14, 0.40, 0.28 (mean 0.28; controls 0 of 18).
The variant GFDLDEYGIS, VIYADGRRTFYIDSVK, GENAGTFDV gave ND, 1.33, 1.13, 1.69, 0.27, 1.56 (mean 1.19; controls 0 of 18).
The variant GFDLNEYGIS, VIYADGRRTFYSDSVK, GEVAGTFDV gave -0.58, -0.81, -0.45, -0.53, -0.81, -0.84 (mean -0.67; controls 0 of 18).
The variant GFNLNEYGIS, VIYADGRRTFYADSVK, GEAAGTFDQ gave -0.28, -0.04, -0.01, -0.71, -0.41, -0.03 (mean -0.25; controls 0 of 18).
The variant GFDLDEYGIS, VIYADGRRTFYADSVK, GNNAGTFDM gave 0.89, -0.46, -0.16, -0.36, -0.18, -0.12 (mean -0.06; controls 0 of 18).
The variant GFDLNEYGIS, VIYADGRRTAYQDSVK, GEVAGTFDS gave -0.38, -0.52, -0.21, -0.58, -0.75, -0.86 (mean -0.55; controls 0 of 18).
The variant GFDLNEYGIS, VIYADGSRTFYADSVK, GEVAGTFDQ gave -0.31, -0.57, -0.21, -0.68, -0.36, -0.45 (mean -0.43; controls 0 of 18).
The variant GFDLNEYGIS, VIYADGKRTFYSDSVK, GTNAGTFDM gave -0.30, -0.54, -0.43, -0.61, -0.43, -0.38 (mean -0.45; controls 1 of 18).
The variant GFNLNEYGIS, VIYADGRRTFYSDSVK, GEAAGTFDT gave -0.57, -0.39, -0.69, -0.76, -0.64, -0.39 (mean -0.57; controls 1 of 18).
The variant GFNLDEYGIS, VIYADGRRTFYIDSVK, GETAGTFDS gave 0.02, -0.31, -0.16, -0.52, 0.04, -0.38 (mean -0.22; controls 0 of 18).
The variant GFDINEYGIS, VIYADGRRTFYTDSVK, GGNAGTFDE gave 0.60, 0.97, -0.23, 0.04, 0.34, 0.41 (mean 0.35; controls 0 of 18).
The variant GFDLNEYGIS, VIYADGLRTFYTDSVK, GEAAGTFDS gave -0.64, -0.64, -0.82, -0.68, -0.78, -0.32 (mean -0.65; controls 0 of 18).
The variant GFDLDEYGIS, VIYADGKRTFYADSVK, GENAGTFDA gave 0.72, 0.61, 0.52, -0.08, 0.36, 0.64 (mean 0.46; controls 0 of 18).
The variant GFDLNEYGIS, VIYADGRRTFYVDDVK, GVNAGTFDE gave 0.25, ND, ND, ND, 0.44, ND (mean 0.34; controls 0 of 18).
The variant GFDLNEYGIS, VIYADGSRTFYSDSVK, GETAGTFDA gave 0.11, -0.19, -0.65, -0.03, 0.01, -0.10 (mean -0.14; controls 0 of 18).
The variant GFDLNEYGIS, VIYADGQRTFYADSVK, GEYAGTFDI gave 0.19, -0.35, ND, 0.90, 1.70, 0.01 (mean 0.49; controls 0 of 18).
The variant GFDLNEYGIS, VIYADGMRTFYDDSVK, GQVAGTFDF gave -0.21, -0.29, -0.42, -0.53, -0.49, -0.18 (mean -0.35; controls 1 of 18).
The variant GFDLNEYGIS, VIYADGRRTFYSDSVK, GQVAGTFDV gave -0.49, -0.56, -0.57, -0.63, -0.89, -0.46 (mean -0.60; controls 1 of 18).
The variant GFQLDEYGIS, VIYADGQRTFYQDSVK, GEVAGTFDS gave -0.04, 0.02, 0.02, 0.19, -0.11, -0.01 (mean 0.01; controls 1 of 18).
The variant GFSLDEYGIS, VIYADGRRTFYQDDVK, GNVAGTFDL gave -0.17, -0.46, -0.59, -0.67, -0.44, -0.49 (mean -0.47; controls 1 of 18).
The variant GFDIDEYGIS, VIYADGMRTFYTDSVK, GEIAGTFDA gave -0.45, -0.16, -0.32, -0.37, -0.49, 0.06 (mean -0.29; controls 0 of 18).
The variant GFDLNEYGIS, VIYADGRRTFYVDSVK, GVNAGTFDT gave -0.27, -0.44, -0.68, -0.60, -0.48, -0.08 (mean -0.42; controls 0 of 18).
The variant GFDLDEYGIS, VIYADGRRTFYADSVK, GTNAGTFDQ gave -0.60, -0.34, -0.64, -0.86, -0.92, -0.25 (mean -0.60; controls 0 of 18).
The variant GFDLNEYGIS, VIYADGQRTFYADSVK, GEAAGTFDV gave -0.46, -0.51, -0.30, -0.79, -0.58, -0.29 (mean -0.49; controls 0 of 18).
The variant GFDLNEYGIS, VIYADGRRTQYIDSVK, GNEAGTFDF gave 1.76, 0.38, 0.55, 0.88, 1.49, 0.07 (mean 0.86; controls 0 of 18).
The variant GFDLNEYGIS, VIYADGLRTYYDDSVK, GQLAGTFDQ gave 0.22, 0.44, ND, 1.27, -0.06, 0.23 (mean 0.42; controls 0 of 18).
The variant GFDLNEYGIS, VIYADGRRTAYLDSVK, GQVAGTFDT gave -0.26, -0.63, -0.67, -0.48, -0.49, -0.21 (mean -0.46; controls 1 of 18).
The variant GFDLNEYGIS, VIYADGRRSFYADSVK, GQNAGTFDV gave -0.04, -0.04, 0.00, -0.16, -0.28, 0.54 (mean 0.00; controls 1 of 18).
The variant GFDLNEYGIS, VIYADGVRTFYVDSVK, GENAGTFDV gave 0.09, -0.34, -0.09, -0.17, -0.37, -0.17 (mean -0.18; controls 0 of 18).
The variant GFDLNEYGIS, VIYADGSRSFYADSVK, GQLAGTFDM gave -0.35, -0.76, -0.11, -0.58, -0.18, 0.54 (mean -0.24; controls 0 of 18).
The variant GFDLNEYGIS, VIYADGRRTFYDDSVK, GKVAGTFDQ gave -0.27, -0.16, -0.29, -0.56, -0.37, -0.29 (mean -0.32; controls 1 of 18).
The variant GFDLDEYGIS, VIYADGMRTFYTDSVK, GEAAGTFDL gave 0.24, -0.16, 0.09, -0.14, -0.05, 0.42 (mean 0.07; controls 0 of 18).
The variant GFDLNEYGIS, VIYADGSRTAYVDSVK, GQVAGTFDV gave -0.91, -0.74, -0.77, -0.86, -0.79, -0.84 (mean -0.82; controls 0 of 18).
The variant GFDLNEYGIS, VIYADGRRTFYADSVK, GSTAGTFNM gave -0.45, -0.85, -0.50, -0.96, -0.86, -0.65 (mean -0.71; controls 0 of 18).
The variant GFDLNEYGIS, VIYADGRRTFYADSVK, GNIAGTFNS gave -0.55, -0.78, -0.84, -0.99, -0.90, -0.63 (mean -0.78; controls 1 of 18).
The variant GFDLNEYGIS, VIYADGMRTHYTDSVK, GNEAGTFDA gave -0.23, 0.26, -0.07, -0.15, 0.94, -0.14 (mean 0.10; controls 0 of 18).
The variant GFDLNEYGIS, VIYADGRRTFYTDDVK, GQNAGTFDV gave -1.10, -1.09, -1.02, -1.52, -0.98, -1.18 (mean -1.15; controls 0 of 18).
The variant GFNLDEYGIS, VIYADGRRTFYADSVK, GEQAGTFDT gave 0.45, 0.29, -0.24, -0.13, 0.10, -0.60 (mean -0.02; controls 0 of 18).
The variant GFDLNEYGIS, VIYADGRRTFYADSVK, GEAGGTFDV gave 0.09, -0.01, -0.14, -0.35, -0.26, -0.02 (mean -0.11; controls 1 of 18).
The variant GFDLNEYGIS, VIYADGRRTQYIDSVK, GNEAGTFDK gave -0.18, -0.04, -0.14, -0.58, -0.31, -0.23 (mean -0.25; controls 0 of 18).
The variant GFDLNEYGIS, VIYADGLRTFYADSVK, GNAAGTFDS gave ND, ND, ND, 2.13, 1.02, ND (mean 1.57; controls 0 of 18).

For reference, 7 entries of the list once more:

Variant GFDLNEYGIS, VIYADGRRTFYSDSVK, GEVAGTFDV showed -0.58, -0.81, -0.45, -0.53, -0.81, -0.84 (mean -0.67; controls 0 of 18).
Variant GFDLNEYGIS, VIYADGRRTFYADSVK, GEAGGTFDV showed 0.09, -0.01, -0.14, -0.35, -0.26, -0.02 (mean -0.11; controls 1 of 18).
Variant GFDLNEYGIS, VIYADGRRTFYSDSVK, GQVAGTFDV showed -0.49, -0.56, -0.57, -0.63, -0.89, -0.46 (mean -0.60; controls 1 of 18).
Variant GFDLNEYGIS, VIYADGSRSFYADSVK, GQLAGTFDM showed -0.35, -0.76, -0.11, -0.58, -0.18, 0.54 (mean -0.24; controls 0 of 18).
Variant GFSLDEYGIS, VIYADGRRTFYQDDVK, GNVAGTFDL showed -0.17, -0.46, -0.59, -0.67, -0.44, -0.49 (mean -0.47; controls 1 of 18).
Variant GFDLNEYGIS, VIYADGRRTFYVDDVK, GVNAGTFDE showed 0.25, ND, ND, ND, 0.44, ND (mean 0.34; controls 0 of 18).
Variant GFDLNEYGIS, VIYADGSRTFYADSVK, GEVAGTFDQ showed -0.31, -0.57, -0.21, -0.68, -0.36, -0.45 (mean -0.43; controls 0 of 18).

The parent sequence was in this pool as ten entries: three were never detected, three once, and four in most replicates, with averages from 0.34 to 2.37. As a blank, each scFv also met three strains without target: over all heavy chain designs, 1% of these pairings were detected, typically at 2.08 and seldom below 0.84. For each scFv, signals with the empty controls are counted beside the result. Values of this round are not directly comparable with the first-round values of the same sequences.

Source: Li et al. 2023 (doi:10.1038/s41467-023-39022-2), MIT Lincoln Laboratory and A-Alpha Bio; data file from the FLAb repository.